For the test, the target named is T1, κ1-opioid receptor (Cavia porcellus, UniProt P41144).
T1 construct: from tissue; host or cells: whole brain membranes of adult male albino guinea-pigs
As to the kind of experiment: Radioligand binding assay, displacement of [3H]U69,593 in guinea-pig brain membranes. (Displacement assays read how much labelled ligand stays bound in the presence of the test substance.)

Chains of the proteins cited; added tags and fusions are not shown. Lines headed by an entry give the natural chain unless they say otherwise; changes in a name come on top.
UniProt P41144: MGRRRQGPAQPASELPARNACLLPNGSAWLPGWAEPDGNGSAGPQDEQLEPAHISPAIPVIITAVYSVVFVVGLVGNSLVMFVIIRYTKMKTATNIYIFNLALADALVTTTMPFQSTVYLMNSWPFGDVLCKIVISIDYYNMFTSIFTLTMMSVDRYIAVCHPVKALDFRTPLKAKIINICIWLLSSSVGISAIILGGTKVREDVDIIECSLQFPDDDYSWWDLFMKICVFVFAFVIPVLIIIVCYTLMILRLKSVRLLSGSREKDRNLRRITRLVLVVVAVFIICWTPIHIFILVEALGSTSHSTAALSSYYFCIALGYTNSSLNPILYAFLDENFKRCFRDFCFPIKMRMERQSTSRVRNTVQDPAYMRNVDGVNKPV

SMILES strings stand for the structures.

Consider `CCC12CCN(CC3(O)CC3)C(Cc3ccc(O)cc31)C2(C)C` (stereo not shown) [bremazocine], for which the affinity, expressed as Ki, was 400 pM.

What is called Ki is a measure of affinity in units of concentration, obtained from inhibition or displacement. Read a high Ki as weaker binding.

The values above are taken from patent US6310072A (priority 1995, dated 2001).
